According to patent US20260200951A1, “NOVEL BORATE COMPOUND SOLUBLE IN ALIPHATIC HYDROCARBON SOLVENT” (AGC INC., priority 2023, published 2026):

Experiment: Evaluation of solubility (visual appearance of stored solutions in aliphatic hydrocarbon solvents)
Assay type: physicochemical
Details: for solubility room temperature, 3 days: stored at room temperature for 3 days; for solubility room temperature, 3 days / solubility −15° C., 3 days: visual observation; for solubility −15° C., 3 days: stored at −15° C. for 3 days
Protocol: Methylcyclohexane solutions containing 50% by weight of each of the compounds obtained in Examples 1 and 2 and Comparative Examples 1 to 5, and n-hexane solutions containing 0.6% by weight (≈3 mM) of each of the aforementioned compounds were prepared and stored at room temperature or −15° C. for 3 days, and the appearance of each solution was confirmed by visual observation. The symbols used to evaluate solubility in the Tables mean the following: • ◯: homogeneous transparent solution state • Δ: cloudy state • x: two-phase separation or crystallization

[1] = 0.6 wt % (≈3 mM) borate compound/n-hexane solution
[2] = 50 wt % borate compound/methylcyclohexane solution

Row | Substance | solubility room temperature, 3 days [1] | solubility −15° C., 3 days [1] | solubility room temperature, 3 days [2] | solubility −15° C., 3 days [2] | solubility in aliphatic hydrocarbon solvents at low temperatures, in words (compared to Comparative Examples 1 to 5, summary of Tables 1 and 2)
1 | N,N-Didodecyl-4-butylanilinium tetrakis(pentafluorophenyl)borate [Comparative Example 4] | ∘ | x (two-phase separation or crystallization) | ∘ | ∘ | 
2 | N, N-Dihexadecyl-4-butylanilinium tetrakis(pentafluorophenyl)borate [Example 1] | ∘ | ∘ | ∘ | ∘* | remarkably high solubility
3 | N,N-Ditetradecyl-4-butylanilinium tetrakis(pentafluorophenyl)borate [Comparative Example 5] | ∘ | x (two-phase separation or crystallization) | ∘ | ∘ | 
